Data: patent US20080305092A1, “Methods of treating autoimmune disease via CTLA-4IG” (THE REGENTS OF THE UNIVERSITY OF MICHIGAN, priority 1993, published 2008)

Tested on: Daudi
Experiment: Cytotoxicity of activated cells against Daudi
Assay type: cell-based, human
Conditions: anti-CD3 triggered T cells
Protocol: Cytotoxicity mediated by anti-CD3 and anti-CD28 triggered PBL. The cytotoxicity of anti-CD3 activated PBL after 7 days of culture in the presence of low doses of IL-2 or anti-CD28 was tested. In this set of experiments, the ability of CD28 to induce increases in lymphokine production to substitute for previously reported immune augmented effects of in vitro T cell treatment with IL-2 has been examined. One lytic unit is equivalent to 20% lysis of 5×10^3 target cells per 1×10^6 effector cells as discussed in Press, H. F. et al., J. Clin. Immunol. 1:51-83 (1981). Various targets, including Daudi and K562, were tested.
In 5 different subjects, PBL were compared with T cells (E^+) in their ability to kill Daudi, K562, and BSB cells 8 days after being activated with OKT3. These experiments were performed in X-Vivo 10 supplemented with 5% human serum (HS). The mean cytotoxicity in 5 normal subjects using PBL directed at Daudi, K562, and BSB were 15.0, 7.4, and 9.2 LU, respectively. In T cells from the same 5 subjects, the mean cytotoxicity directed at Daudi, K562, and BSB were 14.3, 7.7, and 9.3 LU, respectively.
[…] In order to test for optimal cytotoxicity, T cells were cultured with anti-CD3 and IL-2 for 31 days and tested at weekly intervals for cytotoxicity against Daudi and K562. […] Cytotoxicity was a strong function of culture duration however, with <0.1, 24, 3.5, 0.5, 1.0 LU at 0, 8, 15, 22, and 29 days of culture. Similar results were found when Daudi was the target, with <0.01, 23, 5, 2, and 5 LU at 0, 8, 15, 22, and 29 days of culture.
Cytotoxicity induced by soluble or immobilized OKT3. In 7 experiments, cytotoxicity mediated by T cells after activation was compared with soluble or immobilized OKT3. Both methods induced cytotoxicity directed at Daudi and K562. Soluble OKT3 activated T cells mediated a mean cytotoxicity of 27 LU (SD-18) directed at Daudi and a mean cytotoxicity of 21 LU (SD-16) directed at K562. Immobilized OKT3 activated T cells mediated a mean cytotoxicity of 22 LU (SD-16) directed at Daudi and a mean cytotoxicity of 12 LU (SD-8) directed at K562. These experiments were performed with E^+ cells in RPMI 1640 supplemented with 10% fetal bovine serum (FBS). Cytotoxicity was assessed 7 to 8 days after triggering with soluble (10 ng/ml) or immobilized (2 μg/ml) OKT3.
Effects of IL-2 concentrations. The dose of IL-2 was titrated after establishing the optimal time of OKT3 activation. […] Proliferation, as measured by tritiated thymidine incorporation after 3 days of culture, remained constant as IL-2 was titrated in this range. In contrast, cytotoxicity varied with the dose of IL-2, and was maximal at lower doses of IL-2 (lytic units with Daudi targets were 28, 9, 8.5, 9 and 4.8 LU after culture in 30, 150, 300, 600 and 6000 IU/ml of rIL-2).
Bone marrow mononuclear cells (BMMNC) as a source of CTC after anti-CD3 and anti-CD28 treatment. To test whether BMMNC might serve as a source of T cells for therapy in patients with malignancies, BMMNC were cultured in X-Vivo 10 medium after OKT3 and IL-2 or anti-CD28 stimulation. Although the BMMNC population initially contained only 25% CD3^+ cells, proliferative and cytotoxic responses were excellent after 2 weeks of culture. T cells expanded more than 40-fold after CD3 and IL-2 stimulation and cytotoxicity was between 5 and 12 LU at 8 to 15 days of culture when tested against Daudi and K562. […]

rIL-2: recombinant interleukin-2 was tested. Which “lytic units with Daudi targets” value (30 IU/ml of rIL-2) did it give?
The value was 28 LU.

What about the “lytic units with Daudi targets” value (150 IU/ml of rIL-2) of the same substance?
The value was 9 LU.

And the “lytic units with Daudi targets” value (300 IU/ml of rIL-2)?
Its value is 8.5 LU.

And the “lytic units with Daudi targets” value (600 IU/ml of rIL-2)?
Its value is 9 LU.

What about the “lytic units with Daudi targets” value (6000 IU/ml of rIL-2) of the same substance?
The value was 4.8 LU.
